Measured values published in patent publication US8512678B2, “Non-invasive, in vivo fluorescent imaging of the nervous system in whole living animal” (priority 2005, dated 2013).

Experiments:
[1] = test system: GFAP-GFP transgene; assay: Non-invasive in vivo neural imaging of GFAP-GFP transgenic neonatal mice (relative fluorescence, IVIS); set-up: species or system mouse; conditions: 4 doses of 8 mg/kg sc every 2 hours, 24 hours after treatment, p<0.01
Text: The generation and genotyping of the transgenic GFAP-GFP mice were done as previously described (Zhuo et al., 1997). Neonatal mice of FVB/N background at 4 days of age, weighing 2.0 g-2.5 g were used in the present study. Animal husbandry was provided by National University of Singapore animal holding unit facility. The experimental protocol covering the current study was approved by the Institutional Animal Care and Use Committee.
The neonatal mice received a single subcutaneous (sc) injection of 2′-CH3-MPTP (12 mg/kg in saline) at 0 hour. Saline was used as a vehicle for the control group. Neural imaging was subsequently performed at 2 hr, 4 hr, 6 hr and 8 hr post-treatment.
Non-invasive imaging was conducted using an IVIS Imaging System 100 Series (Xenogen Corp., Alameda, Calif., U.S.A.). […] Result of the neurotoxic effect of 2′-CH3-MPTP on the mice was expressed as relative fluorescence (RF), a ratio between the total GFP fluorescent signals detected from the region of interest (ROI) in transgenic (Tg) mouse and the tissue autofluorescence signals from the ROI in non-transgenic (nTg) mouse (TgROI/nTgROI). The area of the ROI for both mice is exactly the same and is identical throughout all the ROI used in the study to quantify the radiances. […]

[2] = test system: GFAP gene expression; assay: Real-time RT-PCR of brain RNA, GFAP gene expression; assay type: in vivo, mouse; conditions: for enhancement in gene expression of GFAP compared to untreated mice: 24 hours after treatment, 4×8 mg/kg, p<0.01
Experimental: (§1) […] The brain was removed and then lysed in buffer RA1 and β-mercaptoethanol. Total RNA from the brain was isolated using NucleoSpin® RNA II kit. Total RNA was reverse-transcribed with random hexamers and real-time RT-PCR was performed on the cDNA to quantify gene expression.
(§2) For mice treated with MPTP (1×12 mg/kg), they were sacrificed 2 hours after treatment. The brain was removed and then lysed in buffer RA1 and β-mercaptoethanol. Total RNA from the brain was isolated using NucleoSpin® RNA II kit. Total RNA was reverse-transcribed with random hexamers and real-time RT-PCR was performed on the cDNA to quantify gene expression. The same procedure is carried out for mice treated with KA (1×2 mg/kg).

[3] = test system: GFP gene expression; assay: Real-time RT-PCR of brain RNA, GFP gene expression; assay type: in vivo, mouse; conditions: transgenic mice
Experimental: as §1, §2

For `CN1CC=C(c2ccccc2)CC1` [MPTP, 1-methyl-4-phenyl-1,2,3,6-tetrahydropyridine], the “increase in relative fluorescence (RF), mean, over the control group” value [1] was 15%, the “enhancement in gene expression of GFAP compared to untreated mice” value ([2]; non-transgenic mouse) was about 88% and the “enhancement in gene expression of GFAP” value ([2]; transgenic mice, 2 hours after treatment, 1×12 mg/kg, p<0.001) was “about 47%”. The “enhancement in gene expression of GFAP compared to untreated mice” value ([2]; transgenic mouse) was “about 91%”, the “enhancement in gene expression of GFP” value ([3]; 2 hours after treatment, 1×12 mg/kg, p<0.01) was about 20% and the “enhancement in gene expression of GFP compared to untreated mice” value ([3]; 24 hours after treatment, 4×8 mg/kg) was “no statistically significant enhancement”.
